The values below are quoted from earlier work in US10017787B2, “Production of alkenes from 3-hydroxycarboxylic acids via 3-hydroxycarboxyl-nucleotidylic acids” (Global Bioenergies, priority 2013, dated 2018).

The test system of this series is Rhodotorula minuta. To be noted: conversion of isovalerate to isobutylene; Fujii T. et al., 1988; cited from earlier work.

Take isovalerate: the “turnover number (kcat)” value was 1e-05 s⁻¹.
